Assay results: patent US7150974B1, “Parathyroid hormone receptor binding method” (The General Hospital Corporation, priority 1991, dated 2006)

Tests used:
[1] = target: T1, human kidney PTH/PTHrP receptor (Homo sapiens, UniProt Q03431, L389Q); test: Radioreceptor assay, COS-7 cells transiently expressing human kidney PTH/PTHrP receptor (HKrk); details: read-out: apparent Kd (affinity); HKrk expressed in COS-7 cells; competition binding, FIGS. 17A, 17C
T1 construct: The full-length human kidney PTH/PTHrP receptor cDNA, HKrk, was constructed using the BamHI/PvuII fragment of PCR clone #2 and HK-2; expressed in transfected cells; host or cells: COS-7 cells, transient (DEAE/Dextran), pcDNAI
T1 sequence (Q03431 27-593 L389Q): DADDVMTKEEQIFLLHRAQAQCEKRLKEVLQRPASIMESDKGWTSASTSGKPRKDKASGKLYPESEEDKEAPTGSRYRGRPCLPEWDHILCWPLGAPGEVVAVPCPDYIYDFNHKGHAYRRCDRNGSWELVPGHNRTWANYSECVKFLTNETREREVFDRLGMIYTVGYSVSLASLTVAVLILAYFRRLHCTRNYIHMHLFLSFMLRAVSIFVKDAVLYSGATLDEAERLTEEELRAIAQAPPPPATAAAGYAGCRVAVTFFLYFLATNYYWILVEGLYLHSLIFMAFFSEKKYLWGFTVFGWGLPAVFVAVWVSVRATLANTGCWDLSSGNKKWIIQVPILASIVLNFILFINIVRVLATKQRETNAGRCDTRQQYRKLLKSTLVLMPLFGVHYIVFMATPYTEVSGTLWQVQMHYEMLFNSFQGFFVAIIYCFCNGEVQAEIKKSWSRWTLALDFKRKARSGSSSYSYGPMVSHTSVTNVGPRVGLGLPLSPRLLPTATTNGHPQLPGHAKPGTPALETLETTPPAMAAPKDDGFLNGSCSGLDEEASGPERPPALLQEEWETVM
Procedure: (§1) In brief, the labeled peptide was dissolved in 0.1% trifluoracetic acid (TFA), applied to a C18 Sep-pak cartridge (Waters Associates, Inc., Milford, Mass.) and eluted with a solution of 60% acetonitrile in 0.1% TFA. After lyophilization, the radioligand then was applied to C18-μBondapak column (3.9 mm×30 cm. Waters Associates) and eluted over 30 min with a linear gradient of 30-50% acetonitrile-0.1% TFA at a flow rate of 2 ml/min.
(§2) COS-7 cells were grown in 15 cm plates in DMEM, 10% heat-inactivated […], 10 mg/L gentamycin until 80-90% confluent. Twenty-four hours after transfection by the DEAE/Dextran method (Sambrook et al., supra), with 1-2 μg of plasmid DNA, the cells were trypsinized and replated in multiwell plastic dishes (16 or 35 mm diameter, Costar, Cambridge, Mass.) at a cell concentration of 5×10^4 cells/cm^2). […] After continuing culture for another 48 h, radiorecepter assays were performed. The culture medium was replaced with buffer containing 50 mM Tris-HCL (pH 7.7), 100 mM NaCl, 2 mM CaCl2, 5 mM KCL, 0.5% heat-inactivated fetal bovine serum (GIBCO), and 5% heat-inactivated horse serum (KC Biological Inc., Lenexa, Kans.) immediately before studies were initiated.
(§3) Incubations were terminated by aspirating the buffer, and repeatedly (×3) washing the culture dishes, containing the adherent cells with chilled 0.9% NaCl solution, over a 15 sec period. Cell-bound radioactivity was recovered by the sequential addition (×3) of 1 N NaOH (200 μl) to each well. After 30 min at room temperature, the NaOH was transferred to a glass tube. A second and third extraction with 1 N NaOH (200 μl) were combined with the first, and the total radioactivity was counted in a γ-spectrometer (Packard Instruments, Downers Grove, Ill.).

[2] = target: T2, rat bone PTH/PTHrP receptor (Rattus norvegicus, UniProt P25961, E586G); test: Radioreceptor assay, COS cells expressing rat bone PTH/PTHrP receptor (R15B); details: read-out: apparent Kd (affinity); R15B expressed in COS-7 cells; competition binding, FIGS. 17B, 17D
T2 construct: expressed in transfected cells; host or cells: COS / COS-7 cells, transient, plasmid R15B (pcDNA I)
T2 sequence (P25961 27-591 E586G): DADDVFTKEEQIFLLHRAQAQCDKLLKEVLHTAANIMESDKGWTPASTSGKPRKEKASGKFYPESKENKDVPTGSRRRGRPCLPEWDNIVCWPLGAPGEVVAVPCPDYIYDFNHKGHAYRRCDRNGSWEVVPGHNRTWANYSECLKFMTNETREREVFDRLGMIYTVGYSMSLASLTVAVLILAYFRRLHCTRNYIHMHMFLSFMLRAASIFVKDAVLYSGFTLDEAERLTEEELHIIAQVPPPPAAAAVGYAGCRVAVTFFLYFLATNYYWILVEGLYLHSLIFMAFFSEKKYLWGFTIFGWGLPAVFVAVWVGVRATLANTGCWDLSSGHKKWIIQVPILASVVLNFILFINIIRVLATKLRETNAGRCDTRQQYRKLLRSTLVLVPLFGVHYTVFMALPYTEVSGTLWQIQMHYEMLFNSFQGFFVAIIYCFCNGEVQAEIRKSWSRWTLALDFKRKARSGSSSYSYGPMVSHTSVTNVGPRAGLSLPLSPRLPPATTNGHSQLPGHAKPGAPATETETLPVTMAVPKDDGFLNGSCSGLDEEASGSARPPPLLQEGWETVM
Procedure: as §1, §2, §3

Row | Substance | Kd [1] [nM] | Kd [2] [nM]
1 | [Nle^8,18, Tyr^34]bPTH(3-34)amide | ~7 | ~45
2 | [Nle^8,18, Tyr^34]bPTH(1-34)amide | ~5 | ~10
3 | [Nle^8,18, Tyr^34]bPTH(7-34)amide | ~60 | ~2000
